Results: ChEMBL document CHEMBL2440068, “Synthesis and evaluation of N-alkyl-S-[3-(piperidin-1-yl)propyl]isothioureas: high affinity and human/rat species-selective histamine H(3) receptor antagonists” (Bioorg Med Chem Lett, 2013)

Amino acid sequences for entries named in this document (tags omitted). A change or cut given only in a name is not applied to a line headed by its entry.
UniProt Q9Y5N1: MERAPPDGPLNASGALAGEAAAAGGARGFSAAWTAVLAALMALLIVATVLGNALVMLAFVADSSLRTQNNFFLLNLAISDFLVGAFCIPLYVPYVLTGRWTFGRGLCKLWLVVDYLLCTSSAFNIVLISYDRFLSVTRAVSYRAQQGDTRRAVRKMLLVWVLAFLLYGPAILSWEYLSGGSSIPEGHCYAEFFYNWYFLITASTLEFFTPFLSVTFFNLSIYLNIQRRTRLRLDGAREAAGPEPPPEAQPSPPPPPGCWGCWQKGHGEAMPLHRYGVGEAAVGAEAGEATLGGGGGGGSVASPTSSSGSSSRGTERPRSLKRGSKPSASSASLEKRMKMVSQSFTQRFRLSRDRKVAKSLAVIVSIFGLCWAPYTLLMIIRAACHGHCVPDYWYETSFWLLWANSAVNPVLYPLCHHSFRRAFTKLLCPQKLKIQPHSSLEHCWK

Target: Histamine H3 receptor (Homo sapiens, UniProt Q9Y5N1)
Test: Antagonist activity at human histamine H3 receptor expressed in CHO cells assessed as inhibition of forskolin/R-alpha-methylhistamine-induced cAMP accumulation after 1.5 hrs by TR-FRET immunoassay
Format: functional, cell-based

SMILES: NC(=NCc1ccc(Cl)cc1)SCCCc1cnc[nH]1 [CLOBENPROPIT]
- IC50: 0.794 nM
- Kb (read-out: pA2 (converted)): 0.1 nM
